Among the data in ChEMBL document CHEMBL1143702, “Synthesis and biological evaluation of (+/-)-abyssinone II and its analogues as aromatase inhibitors for chemoprevention of breast cancer” (J Med Chem, 2007) are IC50 values, retold here.

Amino acid sequences for entries named in this document (tags omitted). A change or cut given only in a name is not applied to a line headed by its entry.
UniProt P11511: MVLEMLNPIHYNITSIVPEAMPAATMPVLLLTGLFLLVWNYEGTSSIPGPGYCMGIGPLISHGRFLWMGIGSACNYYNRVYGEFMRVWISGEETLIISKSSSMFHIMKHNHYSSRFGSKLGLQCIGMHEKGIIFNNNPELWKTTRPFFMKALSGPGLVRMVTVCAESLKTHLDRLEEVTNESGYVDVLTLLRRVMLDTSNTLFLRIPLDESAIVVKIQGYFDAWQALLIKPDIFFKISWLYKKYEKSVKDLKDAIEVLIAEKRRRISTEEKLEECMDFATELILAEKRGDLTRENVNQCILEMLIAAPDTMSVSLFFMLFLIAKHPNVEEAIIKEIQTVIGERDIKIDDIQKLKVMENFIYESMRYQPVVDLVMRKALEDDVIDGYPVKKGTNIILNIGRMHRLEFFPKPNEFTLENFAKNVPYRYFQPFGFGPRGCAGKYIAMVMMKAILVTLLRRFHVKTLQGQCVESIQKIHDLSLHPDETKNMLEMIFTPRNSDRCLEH

The assay concerns the target Aromatase (Homo sapiens, UniProt P11511).

A word on the IC50: it is the midpoint of a concentration-inhibition curve. In turn, `CC(C)=CCc1cc([C@@H]2CC(=O)c3ccc(O)cc3O2)ccc1O` [ABYSSINONE II] had an IC50 of 40.9 µM.
